Experimental data taken from PubChem BioAssay (NCI).
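Test compounds were applied to cells in 96-well plates for 48 hours at 5 doses. Abbreviation: GI50, concentration required for 50% inhibition of growth. TGI: concentration producing complete growth inhibition.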

How the values were obtained:
Experiment in all cases: NCI anticancer screen, dose series, 48 h; in the data active = GI50 below about 0.43 µM; inactive = the rest
786-0 renal = system: 786-0 renal
A498 renal = system: A498 renal
A549 NSCLC = system: A549 NSCLC
ACHN renal = system: ACHN renal
CAKI-1 renal = system: CAKI-1 renal
CCRF-CEM leukemia = system: CCRF-CEM leukemia
COLO 205 colon = system: COLO 205 colon
DU-145 prostate = system: DU-145 prostate
EKVX NSCLC = system: EKVX NSCLC
HCT-116 colon = system: HCT-116 colon
HL-60(TB) leukemia = system: HL-60(TB) leukemia
HOP-62 NSCLC = system: HOP-62 NSCLC
HOP-92 NSCLC = system: HOP-92 NSCLC
HS 578T breast = system: HS 578T breast
HT29 colon = system: HT29 colon
IGROV1 ovarian = system: IGROV1 ovarian
K-562 leukemia = system: K-562 leukemia
KM12 colon = system: KM12 colon
LOX IMVI melanoma = system: LOX IMVI melanoma
M14 melanoma = system: M14 melanoma
MALME-3M melanoma = system: MALME-3M melanoma
MCF7 breast = system: MCF7 breast
MDA-MB-231 breast = system: MDA-MB-231 breast
MDA-MB-435 = system: MDA-MB-435
MDA-N = system: MDA-N
MOLT-4 leukemia = system: MOLT-4 leukemia
NCI-H226 lung = system: NCI-H226 lung
NCI-H322M lung = system: NCI-H322M lung
NCI-H522 lung = system: NCI-H522 lung
OVCAR-3 ovarian = system: OVCAR-3 ovarian
OVCAR-4 ovarian = system: OVCAR-4 ovarian
OVCAR-5 ovarian = system: OVCAR-5 ovarian
OVCAR-8 ovarian = system: OVCAR-8 ovarian
PC-3 prostate = system: PC-3 prostate
RPMI-8226 leukemia = system: RPMI-8226 leukemia
RXF 393 renal = system: RXF 393 renal
SF-268 CNS = system: SF-268 CNS
SF-295 CNS = system: SF-295 CNS
SF-539 CNS = system: SF-539 CNS
SK-MEL-2 melanoma = system: SK-MEL-2 melanoma
SK-MEL-28 melanoma = system: SK-MEL-28 melanoma
SK-MEL-5 melanoma = system: SK-MEL-5 melanoma
SK-OV-3 ovarian = system: SK-OV-3 ovarian
SN12C renal = system: SN12C renal
SNB-19 CNS = system: SNB-19 CNS
SNB-75 CNS = system: SNB-75 CNS
SR leukemia = system: SR leukemia
SW-620 colon = system: SW-620 colon
T-47D breast = system: T-47D breast
TK-10 renal = system: TK-10 renal
U251 CNS = system: U251 CNS
UACC-257 melanoma = system: UACC-257 melanoma
UO-31 renal = system: UO-31 renal

COc1ccc(C(OC[C@H]2O[C@@H](n3cc(C)c(=O)[nH]c3=O)C[C@@H]2O[P@](C)(=S)OC)(c2ccccc2)c2ccc(OC)cc2)cc1
> 100 µM: TGI (786-0 renal) | TGI (A498 renal) | TGI (A549 NSCLC) | TGI (ACHN renal) | TGI (CAKI-1 renal) | TGI (CCRF-CEM leukemia) | TGI (COLO 205 colon) | TGI (DU-145 prostate) | TGI (EKVX NSCLC) | TGI (HCT-116 colon) | TGI (HL-60(TB) leukemia) | TGI (HOP-62 NSCLC) | TGI (HOP-92 NSCLC) | TGI (HS 578T breast) | TGI (HT29 colon) | TGI (IGROV1 ovarian) | TGI (K-562 leukemia) | TGI (KM12 colon) | TGI (LOX IMVI melanoma) | TGI (M14 melanoma) | TGI (MALME-3M melanoma) | TGI (MCF7 breast) | TGI (MDA-MB-231 breast) | TGI (MDA-MB-435) | TGI (MDA-N) | TGI (MOLT-4 leukemia) | TGI (NCI-H226 lung) | TGI (NCI-H322M lung) | TGI (NCI-H522 lung) | TGI (OVCAR-3 ovarian) | TGI (OVCAR-4 ovarian) | TGI (OVCAR-5 ovarian) | TGI (OVCAR-8 ovarian) | TGI (PC-3 prostate) | TGI (RPMI-8226 leukemia) | TGI (RXF 393 renal) | TGI (SF-268 CNS) | TGI (SF-295 CNS) | TGI (SF-539 CNS) | TGI (SK-MEL-2 melanoma) | TGI (SK-MEL-28 melanoma) | TGI (SK-MEL-5 melanoma) | TGI (SK-OV-3 ovarian) | TGI (SN12C renal) | TGI (SNB-19 CNS) | TGI (SNB-75 CNS) | TGI (SR leukemia) | TGI (SW-620 colon) | TGI (T-47D breast) | TGI (TK-10 renal) | TGI (U251 CNS) | TGI (UACC-257 melanoma) | TGI (UO-31 renal)
inactive: GI50 (786-0 renal) > 100 µM | GI50 (A498 renal) > 100 µM | GI50 (A549 NSCLC) 4.95 µM | GI50 (ACHN renal) > 100 µM | GI50 (CAKI-1 renal) 79.6 µM | GI50 (CCRF-CEM leukemia) 5.9 µM | GI50 (COLO 205 colon) 17.8 µM | GI50 (DU-145 prostate) > 100 µM | GI50 (EKVX NSCLC) 13.1 µM | GI50 (HCT-116 colon) 62.7 µM | GI50 (HL-60(TB) leukemia) > 100 µM | GI50 (HOP-62 NSCLC) > 100 µM | GI50 (HOP-92 NSCLC) 26 µM | GI50 (HS 578T breast) 40.3 µM | GI50 (HT29 colon) > 100 µM | GI50 (IGROV1 ovarian) > 100 µM | GI50 (K-562 leukemia) 5.76 µM | GI50 (KM12 colon) > 100 µM | GI50 (LOX IMVI melanoma) > 100 µM | GI50 (M14 melanoma) > 100 µM | GI50 (MALME-3M melanoma) > 100 µM | GI50 (MCF7 breast) 6.02 µM | GI50 (MDA-MB-231 breast) 84 µM | GI50 (MDA-MB-435) 9.18 µM | GI50 (MDA-N) > 100 µM | GI50 (MOLT-4 leukemia) 2.33 µM | GI50 (NCI-H226 lung) 25 µM | GI50 (NCI-H322M lung) > 100 µM | GI50 (NCI-H522 lung) 26.1 µM | GI50 (OVCAR-3 ovarian) > 100 µM | GI50 (OVCAR-4 ovarian) 5 µM | GI50 (OVCAR-5 ovarian) > 100 µM | GI50 (OVCAR-8 ovarian) > 100 µM | GI50 (PC-3 prostate) 4.56 µM | GI50 (RPMI-8226 leukemia) 4.94 µM | GI50 (RXF 393 renal) 4.09 µM | GI50 (SF-268 CNS) 51.8 µM | GI50 (SF-295 CNS) 30.2 µM | GI50 (SF-539 CNS) > 100 µM | GI50 (SK-MEL-2 melanoma) > 100 µM | GI50 (SK-MEL-28 melanoma) > 100 µM | GI50 (SK-MEL-5 melanoma) 10.8 µM | GI50 (SK-OV-3 ovarian) > 100 µM | GI50 (SN12C renal) > 100 µM | GI50 (SNB-19 CNS) > 100 µM | GI50 (SNB-75 CNS) 23.6 µM | GI50 (SR leukemia) 9.22 µM | GI50 (SW-620 colon) > 100 µM | GI50 (T-47D breast) 2.47 µM | GI50 (TK-10 renal) > 100 µM | GI50 (U251 CNS) 9.94 µM | GI50 (UACC-257 melanoma) > 100 µM | GI50 (UO-31 renal) 7.93 µM
